{
  "source": "patent US7348313B2",
  "about": "“Method for targeting cells involved in sclerotic and/or fibrotic diseases” (Stichting Voor de Technische Wetenschappen, priority 1998, dated 2008)",
  "key": {"human liver slices": {"test_system": "human liver slices", "experiment": "Binding and uptake of radiolabeled neo-glycoproteins in human liver slices", "conditions": "125I-labeled; slices from patients with normal liver function and cirrhotic patients; within one hour after co-incubation"}, "[1]": {"experiment": "Organ distribution of radiolabeled (125I) HSA-cyclic peptide conjugates after intravenous administration", "type": "in vivo, rat", "conditions": "normal rats and rats with liver fibrosis (3 weeks after bile duct ligation); 10 minutes after i.v. 125I protein; FIG. 1 and 2", "procedure": "(§1) FIG. 1: Organ distribution of human serum albumin (HSA) conjugated with 10 to 12 cyclic oligopeptides recognizing the PDGF-receptor in normal rats [figure A] and in rats with liver fibrosis induced by bile duct ligation (3 weeks after the operation) [fig.B]. Figure C represents the organ distribution of unmodified HSA. Organs were removed 10 minutes after intravenous administration of radiolabeled (^125I) protein and analyzed using a gamma-counter. The results are expressed as the mean±SD (n=3 per group).\nas §1, with “2:” for “1:”, “collagen type VI-receptor” for “PDGF-receptor”, “[fig. B].” for “[fig.B]. Figure C represents the organ distribution of unmodified HSA.”"}, "PDGF-receptor": {"test_system": "PDGF-receptor", "experiment": "In vitro displacement of radiolabeled PDGF-BB from its receptor upon 3T3-fibroblasts", "type": "binding", "conditions": "FIG. 4", "text": "FIG. 4: In vitro displacement of radiolabeled PDGF-BB from its receptor upon 3T3-fibroblasts by HSA-PDGF receptor-binding peptide conjugates (pPB-HSA, closed blocks), HSA (open blocks) or uncoupled PDGF-receptor binding peptides (pPB, open circles)."}, "[2]": {"test_system": "non-parenchymal cells of the liver", "experiment": "Histochemical examination of liver and bone; double staining with anti-HSA and cell marker antibodies after i.v. HSA-peptide conjugate", "type": "in vivo, rat", "conditions": "10 mg/kg b.w. i.v.", "procedure": "(§2) Normal rats and rats with liver fibrosis (3 weeks after bile duct ligation) received an intravenous injection of 10 mg/kg b.w. PDGF receptor-binding peptides conjugated with HSA. Based upon the results of the organ distribution studies with radiolabeled conjugates (FIG. 1), rats were sacrificed after ten minutes and samples of the liver and bone (from ribs, front paw, rear paw and the back) were removed for histochemical examination. […] Upon cryostat sections of these livers double stainings were performed with anti-HSA antibodies and antibodies against Kupffer cells (ED1), endothelial cells (RECA-1), myofibroblasts (anti-actin antibodies) or hepatic stellate cells (desmin and GFAP antibodies). Subsequently, the number of double positive cells (HSA+ and cell marker+) were counted and related to the total number of HSA positive cells in the same area.\nas §2, with “b.w. collagen VI” for “b.w. PDGF”, “(FIG. 2),” for “(FIG. 1),”\nFIG. 3: Intrahepatic distribution of HSA modified with 10-12 collagen type VI-receptor binding peptides in fibrotic rats (3 weeks after bile duct ligation). […] A]. […] B]."}, "HSC": {"test_system": "HSC", "experiment": "HSC proliferation in rats with liver fibrosis induced by bile duct ligation", "type": "in vivo, rat", "conditions": "bile duct ligated rats, conjugate given 1, 3 and 5 days after ligation, read at day 7; compared to no treatment or PDTC alone", "procedure": "Pyrrolidine-dithiocarbamate (PDTC, which is an inhibitor of the transcription factor NF-kappaB) was attached to M6P28-HSA by coupling the carboxylic groups of PDTC to lysine groups of HSA according to standard procedures. This compound was administered to rats with liverfibrosis induced by bile duct ligation."}, "[3]": {"conditions": "rat, in vivo, iv"}, "[4]": {"conditions": "rats, sacrificed after ten minutes, liver cryostat sections"}},
  "data": [
    {"substance": "HSA: unmodified human serum albumin [reference compound]", "values": [
      {"measurement": "intrahepatic accumulation in human liver slices", "setting": "human liver slices", "result": "not taken up"},
      {"measurement": "organ distribution", "setting": "[1]", "result": "remains in the blood"},
      {"measurement": "displacement of radiolabeled PDGF-BB from its receptor", "setting": "PDGF-receptor", "result": "not by native HSA"}
    ]},
    {"substance": "pPB-HSA: HSA modified with PDGF receptor-recognising cyclic peptides, 10 to 12 per HSA", "values": [
      {"measurement": "organ distribution", "setting": "[1]", "result": "accumulation of modified HSA in livers of normal and diseased rats"},
      {"measurement": "staining in tissue samples (histochemical)", "setting": "[2]; normal and fibrotic rats, ten minutes", "result": "abundant staining"},
      {"measurement": "accumulation in bone samples (histochemical)", "setting": "[2]; normal and fibrotic rats, ten minutes, ribs, front paw, rear paw, back", "result": "No accumulation"},
      {"measurement": "% EC (relative accumulation; HSA-positive cells double-positive for EC marker HIS 52)", "setting": "[2]; [4]", "result": "16 ± 6", "unit": "%"},
      {"measurement": "% HSC (relative accumulation; HSA-positive cells double-positive for HSC marker desmine)", "setting": "[2]; [4]", "result": "72 ± 18", "unit": "%"},
      {"measurement": "% KC (relative accumulation; HSA-positive cells double-positive for KC marker ED2)", "setting": "[2]; [4]", "result": "11 ± 6", "unit": "%"},
      {"measurement": "displacement of radiolabeled PDGF-BB from its receptor", "setting": "PDGF-receptor", "result": "strong inhibition of binding of native PDGF to fibroblasts"}
    ]},
    {"substance": "PDTC-M6P28-HSA: Pyrrolidine-dithiocarbamate (PDTC) attached to M6P28-HSA via carboxylic groups of PDTC and lysine groups of HSA", "values": [
      {"measurement": "proliferation of HSC in the parenchymal area", "setting": "HSC", "result": "less proliferation of HSC"}
    ]},
    {"substance": "M6P28-HSA: neoglycoprotein: mannose 6-phosphate covalently coupled to human serum albumin, x=28", "values": [
      {"measurement": "liver accumulation", "setting": "[3]", "result": "59±9 % of the dose"}
    ]}
  ]
}
